The test system of one experiment is HCT116 cells. Briefly: Effect of P-gp inhibitors on intracellular distribution of Compound 1. The following applies: HCT116, inhibitor 5 to 100 μM, 30 min pretreatment then 16 hr with polyamide, data not shown.
For another experiment, the system named is RSF cells. Described as above. The settings on record: inhibitor 5 to 100 μM, 30 min pretreatment then 16 hr with polyamide.

The results in this text go back to patent US20030109448A1, “Methods of promoting uptake and nuclear accumulation of polyamides in eukaryotic cells” (priority 2001, published 2003).

On to `CC(C)COCC(CN(Cc1ccccc1)c1ccccc1)N1CCCC1` (centres unmarked) [bepridil], for which the “effect on nuclear accumulation / intracellular distribution of Compound 1” value in the experiment on HCT116 cells is given as “None of these showed any observable ability to enhance nuclear accumulation”. In addition, the “effect on intracellular distribution of Compound 1” value in the experiment on RSF cells was “no effect”.
